Results on one molecule are retold here after ChEMBL document CHEMBL1129408, “Development of novel, potent, and selective dopamine reuptake inhibitors through alteration of the piperazine ring of 1-[2-(diphenylmethoxy)ethyl]-and 1-[2-[bis(4-fluorophenyl)methoxy]ethyl]-4-(3-phenylpropyl)piperazines (GBR 12935 and GBR 12909)” (J Med Chem, 1996).

The chains behind the UniProt entries cited, without tags or fusion partners.
UniProt P31652, whole entry: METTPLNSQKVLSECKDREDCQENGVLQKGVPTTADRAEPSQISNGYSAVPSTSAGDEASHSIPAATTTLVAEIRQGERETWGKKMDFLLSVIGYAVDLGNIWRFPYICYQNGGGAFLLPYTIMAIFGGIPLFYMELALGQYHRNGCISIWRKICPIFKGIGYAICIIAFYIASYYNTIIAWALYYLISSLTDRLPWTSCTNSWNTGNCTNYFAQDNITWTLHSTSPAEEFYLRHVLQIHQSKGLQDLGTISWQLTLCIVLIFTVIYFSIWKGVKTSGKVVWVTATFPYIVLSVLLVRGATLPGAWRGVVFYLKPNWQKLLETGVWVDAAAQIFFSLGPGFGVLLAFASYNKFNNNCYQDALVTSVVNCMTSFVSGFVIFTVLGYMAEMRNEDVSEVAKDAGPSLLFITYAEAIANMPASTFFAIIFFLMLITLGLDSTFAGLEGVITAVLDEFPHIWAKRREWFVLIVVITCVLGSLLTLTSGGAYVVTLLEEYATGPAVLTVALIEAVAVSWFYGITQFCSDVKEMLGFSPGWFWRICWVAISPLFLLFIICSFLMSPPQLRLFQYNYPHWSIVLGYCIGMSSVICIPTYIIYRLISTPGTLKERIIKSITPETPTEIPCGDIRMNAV

The IC50 is the concentration needed to halve the response being measured. Low readings indicate inhibition by little substance, high ones a need for much substance.

In this test the target is Sodium-dependent serotonin transporter (Rattus norvegicus, UniProt P31652). Put plainly: Inhibition of [3H]5-HT reuptake at rat serotonin transporter.

The structures appear in SMILES notation.

Regarding `COC(=O)[C@@H]1C2CC[C@@H](C[C@@H]1OC(=O)c1ccccc1)N2C` (single isomer, unassigned) [COCAINE], the IC50 worked out at 304 nM.
